Measured values taken from publication PMC6504579 (Journal of immunology (Baltimore, Md. : 1950), 2019).

Type: in vitro ADME, human
Conditions: paired CD4 T cell cytosolic extracts, 37 °C, pH 7.4, LC-MS/MS

## CC[C@H](C)[C@H](NC(=O)[C@@H](NC(=O)[C@H](CCC(=O)O)NC(=O)[C@@H]1CCCN1C(=O)[C@H](CO)NC(=O)[C@H](Cc1ccccc1)NC(=O)[C@H](C)NC(=O)[C@H](CCCCN)NC(=O)[C@H](CCC(=O)O)NC(=O)[C@H](CCC(=O)O)NC(=O)[C@@H](NC(=O)[C@@H](NC(=O)[C@@H](N)CCCCN)C(C)C)C(C)C)C(C)C)C(=O)N1CCC[C@H]1C(=O)N[C@@H](CCSC)C(=O)N[C@@H](Cc1ccccc1)C(=O)N[C@@H](CO)C(=O)N[C@@H](C)C(=O)N[C@@H](CC(C)C)C(=O)O [5-KF11–3]
  degradation rate of substrate in CD3/CD28-stimulated vs non-stimulated extracts: faster degradation rates
